Like-named read-outs stand apart in the source and are kept apart here.
Columns and labels:
[1] = target: nociceptin (NOP) receptor (Homo sapiens, UniProt P41146); assay: Radioligand binding assay, [3H]N/OFQ, membranes of CHO cells transfected with human NOP receptor
[2] = target: kappa opioid receptor (Homo sapiens, UniProt P41145); assay: Radioligand binding assay, [3H]U69593, membranes of CHO cells transfected with human kappa opioid receptor
[3] = target: mu opioid receptor (Homo sapiens, UniProt P35372); assay: Radioligand binding assay, [3H]DAMGO, membranes of CHO cells transfected with human mu opioid receptor
[4] = read-out: Receptor Binding Ki (nM) NOP, Compounds of Formula (II), CHO cell membranes
[5] = read-out: Receptor Binding Ki (nM) κ, Compounds of Formula (II), CHO cell membranes
[6] = read-out: Receptor Binding Ki (nM) μ, Compounds of Formula (II), CHO cell membranes
[7] = read-out: Receptor Binding Ki (nM) NOP, Compounds of Formula (III), CHO cell membranes
[8] = read-out: Receptor Binding Ki (nM) κ, Compounds of Formula (III), CHO cell membranes
[9] = read-out: Receptor Binding Ki (nM) μ, Compounds of Formula (III), CHO cell membranes

| SMILES | Ki [1, 4] [nM] | Ki [2, 5] [nM] | Ki [3, 6] [nM] | Ki [1, 7] [nM] | Ki [2, 8] [nM] | Ki [3, 9] [nM] |
| --- | --- | --- | --- | --- | --- | --- |
| CC(O)c1cc2ccccc2n1C1CCN([C@H]2CC[C@@H](C(C)C)CC2)CC1 (stereo partly shown) | < 15 | 15 to 150 | 15 to 150 |  |  |  |
| CC(C)C1CCC(N2CCC(n3cc(CNC(N)=NC#N)c4ccccc43)CC2)CC1 (stereo not shown) | 15 to 150 | 150 to 5000 | 15 to 150 |  |  |  |
| CC(C)[C@H]1CC[C@@H](N2CCC(n3c(CO)cc4cc(F)ccc43)CC2)CC1 | < 15 | 15 to 150 | 15 to 150 |  |  |  |
| CC(C)[C@H]1CC[C@@H](N2CCC(n3c(CNC(=O)c4ccoc4)cc4ccccc43)CC2)CC1 (relative stereo) | < 15 | 15 to 150 | < 15 |  |  |  |
| CC(C)[C@H]1CC[C@@H](N2CCC(n3c(CN)c(CO)c4ccccc43)CC2)CC1 (relative stereo) | < 15 | 15 to 150 | 15 to 150 |  |  |  |
| CC(C)[C@H]1CC[C@@H](N2CCC(n3cc(CNCCO)c4ccccc43)CC2)CC1 | 15 to 150 |  |  |  |  |  |
| CC(C)[C@H]1CC[C@@H](N2CCC(n3cc(CCN)c4ccccc43)CC2)CC1 (relative stereo) | < 15 |  |  |  |  |  |
| COC(=O)/C=C1\C(=O)N(C2CCN([C@H]3CC[C@@H](C(C)C)CC3)CC2)c2ccccc21 |  |  |  | 15 to 150 | 150 to 5000 | 150 to 5000 |
| CC(C)[C@H]1CC[C@@H](N2CCC(n3cc(CN4CCC(O)CC4)c4ccccc43)CC2)CC1 | 15 to 150 |  |  |  |  |  |
| CC(=O)NCc1c(/C=N/O)c2ccccc2n1C1CCN(C2CCC(C(C)C)CC2)CC1 (stereo not shown) | < 15 | 150 to 5000 | < 15 |  |  |  |
| Cc1ccc(S(=O)(=O)NCc2c(CO)c3ccccc3n2C2CCN([C@H]3CC[C@@H](C(C)C)CC3)CC2)cc1 | < 15 | 150 to 5000 | 15 to 150 |  |  |  |
| Cc1ccc2c(c1)cc(CNC(=O)OCc1ccccc1)n2C1CCN([C@H]2CC[C@@H](C(C)C)CC2)CC1 | 150 to 5000 | > 5000 | 15 to 150 |  |  |  |
| CC(C)C(N)C(=O)OCc1cc2ccccc2n1C1CCN([C@H]2CC[C@@H](C(C)C)CC2)CC1 (stereo partly shown) | < 15 | 15 to 150 | < 15 |  |  |  |
| CC(C)[C@H]1CC[C@@H](N2CCC(n3c(CNC(=O)OCc4ccccc4)c(CO)c4ccccc43)CC2)CC1 (relative stereo) | < 15 | 15 to 150 | < 15 |  |  |  |
| CC(C)(O)[C@H]1CC[C@@H](N2CCC(n3c(CO)cc4ccccc43)CC2)CC1 | 15 to 150 | > 5000 | 150 to 5000 |  |  |  |
| CC(C)[C@H]1CC[C@@H](N2CCC(n3c(CCOS(N)(=O)=O)cc4ccccc43)CC2)CC1 | < 15 | 15 to 150 | < 15 |  |  |  |
| CC(C)[C@H]1CC[C@@H](N2CCC(n3c(CCOC(=O)C(C)(C)C)c(CN)c4ccccc43)CC2)CC1 (relative stereo) | < 15 |  | < 15 |  |  |  |
| CC(C)[C@H]1CC[C@@H](N2CCC(n3cc(CNC(N)=S)c4ccccc43)CC2)CC1 (relative stereo) | < 15 | 150 to 5000 | 15 to 150 |  |  |  |
| Cc1ccc2c(c1)cc(CN)n2C1CCN([C@H]2CC[C@@H](C(C)C)CC2)CC1 | < 15 | 15 to 150 | 15 to 150 |  |  |  |
| CC(C)[C@H]1CC[C@@H](N2CCC(n3cc(CNC(=O)CNC(=O)OCc4ccccc4)c4ccccc43)CC2)CC1 | 15 to 150 | 150 to 5000 | 15 to 150 |  |  |  |

| SMILES | Ki [1, 4] [nM] | Ki [2, 5] [nM] | Ki [3, 6] [nM] | Ki [1, 7] [nM] | Ki [2, 8] [nM] | Ki [3, 9] [nM] |
| --- | --- | --- | --- | --- | --- | --- |
| CC(C)C(=O)NC1C(=O)N(C2CCN([C@H]3CC[C@@H](C(C)C)CC3)CC2)c2ccccc21 (stereo partly shown) |  |  |  | < 15 |  |  |
| CC(C)[C@H]1CC[C@@H](N2CCC(n3c(CNC(=O)OCc4ccccc4)cc4ccccc43)CC2)CC1 | < 15 | 15 to 150 | < 15 |  |  |  |
| CC(C)[C@H]1CC[C@@H](N2CCC(n3cc(CN4CC(O)C4)c4ccccc43)CC2)CC1 (relative stereo) | 15 to 150 |  |  |  |  |  |
| CC(C)[C@H]1CC[C@@H](N2CCC(n3cc(CNCc4ccccc4)c4ccccc43)CC2)CC1 | 150 to 5000 |  | 150 to 5000 |  |  |  |
| Cc1ccc2c(c1)cc(CO)n2C1CCN([C@H]2CC[C@@H](C(C)C)CC2)CC1 | 150 to 5000 | 150 to 5000 | 150 to 5000 |  |  |  |
| CC(C)C1CCC(N2CCC(n3c(CNC(=O)OCc4ccccc4)c(/C=N/O)c4ccccc43)CC2)CC1 (stereo not shown) | < 15 | 150 to 5000 | < 15 |  |  |  |
| CC(C)[C@H]1CC[C@@H](N2CCC(n3cc(CCCN)c4cc(F)ccc43)CC2)CC1 | 15 to 150 | > 5000 | 15 to 150 |  |  |  |
| CC(C)C(N)C(=O)NCc1cc2ccccc2n1C1CCN([C@H]2CC[C@@H](C(C)C)CC2)CC1 (relative stereo) | < 15 | 15 to 150 | < 15 |  |  |  |
| CC(C)C1CCC(N2CCC(n3cc(CNC(=NC#N)Oc4ccccc4)c4ccccc43)CC2)CC1 (stereo not shown) | 15 to 150 | > 5000 | 150 to 5000 |  |  |  |
| CNCc1c(CO)c2ccccc2n1C1CCN([C@H]2CC[C@@H](C(C)C)CC2)CC1 | < 15 | 15 to 150 | 15 to 150 |  |  |  |
| CC(C)[C@H]1CC[C@@H](N2CCC(n3cc(CN4CC[C@@H](O)C4)c4ccccc43)CC2)CC1 | < 15 |  |  |  |  |  |
| CC(=O)OCCc1cc2ccccc2n1C1CCN([C@H]2CC[C@@H](C(C)C)CC2)CC1 | < 15 | 150 to 5000 | < 15 |  |  |  |
| CCN(CC)CC(=O)NCc1cn(C2CCN([C@H]3CC[C@@H](C(C)C)CC3)CC2)c2ccccc12 | 15 to 150 | > 5000 | 150 to 5000 |  |  |  |
| CC(C)[C@H]1CC[C@@H](N2CCC(n3c(CNC(=O)C(C)(C)C)cc4ccccc43)CC2)CC1 (relative stereo) | 15 to 150 | 150 to 5000 | 15 to 150 |  |  |  |
| CCC(=O)NCc1cc2ccccc2n1C1CCN([C@H]2CC[C@@H](C(C)C)CC2)CC1 (relative stereo) | < 15 | 15 to 150 | 15 to 150 |  |  |  |
| CCOC(=O)NCc1c(C=NO)c2ccccc2n1C1CCN([C@H]2CC[C@@H](C(C)C)CC2)CC1 | < 15 | 15 to 150 | 15 to 150 |  |  |  |
| CCNCC(=O)NCc1cn(C2CCN([C@H]3CC[C@@H](C(C)C)CC3)CC2)c2ccccc12 | 15 to 150 |  |  |  |  |  |
| CC(C)[C@H]1CC[C@@H](N2CCC(n3cc(CN4CCc5ccccc54)c4ccccc43)CC2)CC1 (relative stereo) | 150 to 5000 |  | 150 to 5000 |  |  |  |
| CC(C)[C@H]1CC[C@@H](N2CCC(n3cc(C(N)=O)c4ccccc43)CC2)CC1 (relative stereo) | 15 to 150 | 150 to 5000 | 150 to 5000 |  |  |  |
| CNCc1cc2ccccc2n1C1CCN([C@H]2CC[C@@H](C(C)C)CC2)CC1 (relative stereo) | < 15 | 15 to 150 | < 15 |  |  |  |

| SMILES | Ki [1, 4] [nM] | Ki [2, 5] [nM] | Ki [3, 6] [nM] | Ki [1, 7] [nM] | Ki [2, 8] [nM] | Ki [3, 9] [nM] |
| --- | --- | --- | --- | --- | --- | --- |
| CONC(=O)CC1C(=O)N(C2CCN([C@H]3CC[C@@H](C(C)C)CC3)CC2)c2ccc(F)cc21 (stereo partly shown) |  |  |  | < 15 | 150 to 5000 | > 5000 |
| CC(C)[C@H]1CC[C@@H](N2CCC(n3cc(CNC(=O)C(N)CCCNC(=N)N)c4ccccc43)CC2)CC1 (stereo partly shown) | < 15 |  |  |  |  |  |
| CC(C)[C@H]1CC[C@@H](N2CCC(n3cc(C=NO)c4ccccc43)CC2)CC1 | < 15 | > 5000 | 15 to 150 |  |  |  |
| CC(=O)NC(C(=O)NCc1cc2ccccc2n1C1CCN([C@H]2CC[C@@H](C(C)C)CC2)CC1)C(C)C (relative stereo) | < 15 | 15 to 150 | < 15 |  |  |  |
| CC(=O)NCCc1cn(C2CCN([C@H]3CC[C@@H](C(C)C)CC3)CC2)c2ccccc12 | 15 to 150 | 150 to 5000 | 150 to 5000 |  |  |  |
| CC(C)[C@H]1CC[C@@H](N2CCC(n3c(-c4ccc(Cl)cc4)cc4ccccc43)CC2)CC1 (relative stereo) | 150 to 5000 | > 5000 | 150 to 5000 |  |  |  |
| CC(C)[C@H]1CC[C@@H](N2CCC(n3c(CO)c(CN)c4ccccc43)CC2)CC1 | < 15 | 150 to 5000 | < 15 |  |  |  |
| CC(=O)OCc1cc2ccccc2n1C1CCN([C@H]2CC[C@@H](C(C)C)CC2)CC1 | < 15 | 150 to 5000 | < 15 |  |  |  |
| CC(C)[C@H]1CC[C@@H](N2CCC(n3cc(CCN)c4cc(Cl)ccc43)CC2)CC1 | 15 to 150 | 150 to 5000 | 15 to 150 |  |  |  |
| CC(C)C1CCC(N2CCC(n3c(CCOC(=O)C(C)(C)C)c(/C=N/O)c4ccccc43)CC2)CC1 (stereo not shown) | 15 to 150 |  | 15 to 150 |  |  |  |
| CC(C)[C@H]1CC[C@@H](N2CCC(n3cc(/C=C\C#N)c4ccccc43)CC2)CC1 | 15 to 150 | 150 to 5000 | 150 to 5000 |  |  |  |
| CC(C)[C@H]1CC[C@@H](N2CCC(n3cc(CN4CCCC4)c4ccccc43)CC2)CC1 [Compound 65, 1-(1-(cis-4-isopropylcyclohexyl)piperidin-4-yl)-3-(pyrrolin-1-ylmethyl)-1H-indole] | < 15 |  |  |  |  |  |
| CC(C)[C@H]1CC[C@@H](N2CCC(n3c(CNC(=O)OCc4ccccc4)cc4cc(F)ccc43)CC2)CC1 (relative stereo) | < 15 | 15 to 150 | 15 to 150 |  |  |  |
| CC(C)[C@H]1CC[C@@H](N2CCC(n3c(C(C#N)Nc4ccccc4)cc4ccccc43)CC2)CC1 (stereo partly shown) | < 15 | 15 to 150 | 15 to 150 |  |  |  |
| CNC(=O)NC1C(=O)N(C2CCN([C@H]3CC[C@@H](C(C)C)CC3)CC2)c2ccccc21 (stereo partly shown) |  |  |  | 15 to 150 | 150 to 5000 | 150 to 5000 |
| CC(C)[C@H]1CC[C@@H](N2CCC(n3cc(CNC(=O)CCCCN)c4ccccc43)CC2)CC1 | 15 to 150 |  | 150 to 5000 |  |  |  |
| CC(C)[C@H]1CC[C@@H](N2CCC(n3cc(CCCNC(N)=S)c4ccccc43)CC2)CC1 | 15 to 150 |  |  |  |  |  |
| CC(C)[C@H]1CC[C@@H](N2CCC(n3cc(CN(C)C)c4ccccc43)CC2)CC1 | 15 to 150 |  |  |  |  |  |
| CC(C)[C@H]1CC[C@@H](N2CCC(n3c(CCO)c(CN)c4ccccc43)CC2)CC1 (relative stereo) | < 15 |  | < 15 |  |  |  |
| CC(C)[C@H]1CC[C@@H](N2CCC(n3c(CCOC(=O)C(C)(C)C)cc4ccccc43)CC2)CC1 | 15 to 150 |  | 15 to 150 |  |  |  |
